Test results from ChEMBL document CHEMBL1138933 (J Med Chem, 2006).

Amino acid sequences for entries named in this document (tags omitted).
UniProt P08908, whole entry: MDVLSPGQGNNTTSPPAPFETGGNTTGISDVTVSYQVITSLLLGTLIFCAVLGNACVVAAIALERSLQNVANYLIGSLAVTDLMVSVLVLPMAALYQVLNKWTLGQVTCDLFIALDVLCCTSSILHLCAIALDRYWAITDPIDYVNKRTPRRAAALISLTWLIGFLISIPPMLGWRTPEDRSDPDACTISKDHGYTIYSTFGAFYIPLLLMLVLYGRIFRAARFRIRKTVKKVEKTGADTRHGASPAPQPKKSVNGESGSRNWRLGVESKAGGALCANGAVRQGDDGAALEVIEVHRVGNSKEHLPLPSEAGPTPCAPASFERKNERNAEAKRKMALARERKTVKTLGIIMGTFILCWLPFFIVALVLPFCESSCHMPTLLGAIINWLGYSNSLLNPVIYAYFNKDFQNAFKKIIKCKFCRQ

Key:
[1] = biological target: T1, 5-hydroxytryptamine receptor 1A (Homo sapiens, UniProt P08908); assay: biochemical
[2] = biological target: T1, 5-hydroxytryptamine receptor 1A

Row | Ki [1] [nM] | SMILES | IC50 [2] [nM]
1 | 0.1 | NC(=O)c1ccc(F)c2c1C[C@H](N(CCCc1c[nH]c3ccc(F)cc13)CC1CC1)CO2 | 
2 | 2.3 | NC(=O)c1ccc(F)c2c1CC(N(CCCc1c[nH]c3ccc(F)cc13)CC1CC1)CO2 (racemic) | 

Row | SMILES | Ki [1] [nM] | IC50 [2] [nM]
3 | NC(=O)c1ccc(F)c2c1C[C@@H](N(CCCc1c[nH]c3ccc(F)cc13)CC1CC1)CO2 | 2.1 | 70
